# Membrane permeability of cyclic peptides

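The data file gives no further conditions (lipid, pH, time, direction or concentration), and values from different papers need not be comparable. The list need not hold all peptides of the study. Entries at the database's floor value (log10 P of -10) are not listed.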

PAMPA measures passive passage through an artificial lipid membrane.
Permeability is in 10^-6 cm/s, converted from the database's log10 values; higher is more permeable.

{"smiles": "CCCC[C@@H]1NC(=O)[C@@H](CC(C)C)NC(=O)CN(CC2CCCCC2)C(=O)[C@H](Cc2ccccc2)NC(=O)CN(CC)C(=O)[C@H]2CCCN2C1=O", "PAMPA (10^-6 cm/s)": "17"}
{"smiles": "CCCC[C@@H]1NC(=O)[C@H](CC(C)C)NC(=O)CN(CC2CCCCC2)C(=O)[C@@H](C)NC(=O)CN(Cc2ccc3c(c2)OCO3)C(=O)[C@@H]2CCCN2C1=O", "PAMPA (10^-6 cm/s)": "4.1"}
{"smiles": "CCCC[C@@H]1NC(=O)[C@H](CC(C)C)N(C)C(=O)CN(CC2CCOCC2)C(=O)[C@H](C)NC(=O)CN(CC)C(=O)[C@H]2CCCN2C1=O", "PAMPA (10^-6 cm/s)": "0.17"}
{"smiles": "CCCC[C@@H]1NC(=O)[C@@H](CC(C)C)N(C)C(=O)CN(CC2CCCCC2)C(=O)[C@H](C)NC(=O)CN(CC)C(=O)[C@@H]2CCCN2C1=O", "PAMPA (10^-6 cm/s)": "9.8"}
{"smiles": "CCCC[C@@H]1NC(=O)[C@H](CC(C)C)NC(=O)CN(CC2CCOCC2)C(=O)[C@H](C)NC(=O)CN(CCCOC(C)C)C(=O)[C@@H]2CCCN2C1=O", "PAMPA (10^-6 cm/s)": "0.027"}
{"smiles": "CCCC[C@@H]1NC(=O)[C@@H](CC(C)C)NC(=O)CN(CC2CCCCC2)C(=O)[C@H](C)NC(=O)CN(CC)C(=O)[C@H]2CCCN2C1=O", "PAMPA (10^-6 cm/s)": "2.6"}
{"smiles": "CCCCCN1CC(=O)N[C@@H](CC(C)C)C(=O)N[C@@H](CCCC)C(=O)N2CCC[C@@H]2C(=O)N(CC)CC(=O)N[C@H](C)C1=O", "PAMPA (10^-6 cm/s)": "0.14"}
{"smiles": "CCCC[C@@H]1NC(=O)[C@@H](CC(C)C)N(C)C(=O)CN(CC2CCCCC2)C(=O)[C@@H](C)NC(=O)CN(CCCOC(C)C)C(=O)[C@H]2CCCN2C1=O", "PAMPA (10^-6 cm/s)": "8.1"}
{"smiles": "CCCC[C@@H]1NC(=O)[C@@H](CC(C)C)N(C)C(=O)CN(CC2CCCCC2)C(=O)[C@@H](Cc2ccccc2)NC(=O)CN(CC)C(=O)[C@@H]2CCCN2C1=O", "PAMPA (10^-6 cm/s)": "13"}
{"smiles": "CCCCCN1CC(=O)N[C@@H](CC(C)C)C(=O)N[C@@H](CCCC)C(=O)N2CCC[C@H]2C(=O)N(Cc2ccc3c(c2)OCO3)CC(=O)N[C@H](C)C1=O", "PAMPA (10^-6 cm/s)": "2.1"}
{"smiles": "CCCCCN1CC(=O)N[C@@H](CC(C)C)C(=O)N[C@@H](CCCC)C(=O)N2CCC[C@H]2C(=O)N(CC)CC(=O)N[C@H](C)C1=O", "PAMPA (10^-6 cm/s)": "0.33"}
{"smiles": "CCCCCN1CC(=O)N[C@H](CC(C)C)C(=O)N[C@@H](CCCC)C(=O)N2CCC[C@H]2C(=O)N(Cc2ccc3c(c2)OCO3)CC(=O)N[C@H](Cc2ccccc2)C1=O", "PAMPA (10^-6 cm/s)": "7.6"}

Source: CycPeptMPDB (Li et al. 2023), which took these values from Furukawa et al. 2016, doi:10.1021/acs.jmedchem.6b01246.